The record followed here is ChEMBL document CHEMBL3734722, “Structural Elucidation of a Small Molecule Inhibitor of Protein Disulfide Isomerase” (ACS Med Chem Lett, 2015).

Protein sequences, listed by entry. Tags and fused reporters are not part of them. Lines headed by an entry give the natural chain unless they say otherwise; changes in a name come on top.
UniProt P07237: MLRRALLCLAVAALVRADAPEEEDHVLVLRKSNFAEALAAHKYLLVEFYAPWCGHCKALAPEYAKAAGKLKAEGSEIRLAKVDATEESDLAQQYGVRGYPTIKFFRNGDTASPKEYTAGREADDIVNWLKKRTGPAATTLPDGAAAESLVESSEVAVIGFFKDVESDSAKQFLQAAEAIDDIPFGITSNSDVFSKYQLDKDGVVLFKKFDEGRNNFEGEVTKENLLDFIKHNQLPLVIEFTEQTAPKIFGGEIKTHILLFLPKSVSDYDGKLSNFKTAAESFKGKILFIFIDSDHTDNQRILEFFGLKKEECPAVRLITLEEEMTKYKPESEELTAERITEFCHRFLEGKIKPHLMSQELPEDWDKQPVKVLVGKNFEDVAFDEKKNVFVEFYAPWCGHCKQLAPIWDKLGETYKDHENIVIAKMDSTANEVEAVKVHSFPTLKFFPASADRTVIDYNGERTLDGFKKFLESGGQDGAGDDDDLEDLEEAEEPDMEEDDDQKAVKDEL

Activity calls are given as the source filed them. The calls are words filed in the database; no cut-off is given here.

For the assay, the target named is Protein disulfide-isomerase (Homo sapiens) (UniProt P07237). Nature of the assay: Irreversible binding affinity to PDI catalytic domain a (unknown origin) at 3 mM measured after 100 fold dilution for 2 hrs by intrinsic tryptophan fluorescence assay.

Consider `O=[As]c1ccccc1` (stereo unspecified), for which the result was Active.
